Protein sequences, listed by entry. Tags and fused reporters are not part of them. Residues count along the entry.
UniProt P03956, 100-469 limits assumed: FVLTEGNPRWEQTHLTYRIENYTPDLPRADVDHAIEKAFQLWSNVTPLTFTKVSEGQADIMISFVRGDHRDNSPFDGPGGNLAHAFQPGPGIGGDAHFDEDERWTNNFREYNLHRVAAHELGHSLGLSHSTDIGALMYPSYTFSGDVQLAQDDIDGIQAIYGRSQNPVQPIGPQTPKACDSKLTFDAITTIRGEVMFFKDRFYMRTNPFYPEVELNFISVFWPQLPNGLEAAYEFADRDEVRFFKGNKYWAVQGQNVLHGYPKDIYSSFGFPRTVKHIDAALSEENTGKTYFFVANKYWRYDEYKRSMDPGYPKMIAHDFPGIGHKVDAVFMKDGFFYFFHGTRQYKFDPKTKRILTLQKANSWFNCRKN
UniProt P08253, 110-660 limits assumed: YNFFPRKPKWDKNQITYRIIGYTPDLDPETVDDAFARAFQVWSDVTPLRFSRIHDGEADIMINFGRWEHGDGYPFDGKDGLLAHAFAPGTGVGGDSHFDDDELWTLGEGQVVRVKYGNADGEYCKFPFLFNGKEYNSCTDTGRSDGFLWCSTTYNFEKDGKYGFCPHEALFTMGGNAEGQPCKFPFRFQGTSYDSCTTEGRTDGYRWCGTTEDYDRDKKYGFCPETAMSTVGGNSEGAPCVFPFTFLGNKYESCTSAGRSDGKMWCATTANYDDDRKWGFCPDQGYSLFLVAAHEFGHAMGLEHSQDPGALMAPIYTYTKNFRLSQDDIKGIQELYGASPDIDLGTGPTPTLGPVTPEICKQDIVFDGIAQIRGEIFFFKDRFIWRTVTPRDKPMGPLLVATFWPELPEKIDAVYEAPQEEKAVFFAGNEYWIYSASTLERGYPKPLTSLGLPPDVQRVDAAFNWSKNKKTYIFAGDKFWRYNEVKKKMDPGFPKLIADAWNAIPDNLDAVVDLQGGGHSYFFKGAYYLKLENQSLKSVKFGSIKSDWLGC

In US20010039287A1, “AROMATIC SULFONE HYDROXAMIC ACID METALLOPROTEASE INHIBITOR” (priority 1997, published 2001):

Experiments:
recombinant human MMP-13 = recombinant human MMP-13 (Homo sapiens, UniProt P45452); conditions: read-out: MMP-13 IC50; Inhibition Table B; tested form: TFA
recombinant human MMP-1 = recombinant human MMP-1 (Homo sapiens, UniProt P03956); conditions: read-out: MMP-1 IC50; Inhibition Table B; tested form: TFA
recombinant human MMP-2 = recombinant human MMP-2 (Homo sapiens, UniProt P08253); conditions: read-out: MMP-2 IC50; Inhibition Table B; tested form: TFA

SMILES: O=C(NO)C1(S(=O)(=O)c2ccc(-c3ccc(OCCN4CCCC4)cc3)cc2)CCOCC1
- IC50 (recombinant human MMP-13): < 1 nM
- IC50 (recombinant human MMP-1): > 10000 nM
- IC50 (recombinant human MMP-2): < 1 nM
